Laboratory results reported in ChEMBL document CHEMBL1134008, “Cis- and trans-N-benzyl-octahydrobenzo[g]quinolines. Adrenergic and dopaminergic activity studies” (Bioorg Med Chem Lett, 2001).

The chains behind the UniProt entries cited, without tags or fusion partners.
UniProt P61169, whole entry: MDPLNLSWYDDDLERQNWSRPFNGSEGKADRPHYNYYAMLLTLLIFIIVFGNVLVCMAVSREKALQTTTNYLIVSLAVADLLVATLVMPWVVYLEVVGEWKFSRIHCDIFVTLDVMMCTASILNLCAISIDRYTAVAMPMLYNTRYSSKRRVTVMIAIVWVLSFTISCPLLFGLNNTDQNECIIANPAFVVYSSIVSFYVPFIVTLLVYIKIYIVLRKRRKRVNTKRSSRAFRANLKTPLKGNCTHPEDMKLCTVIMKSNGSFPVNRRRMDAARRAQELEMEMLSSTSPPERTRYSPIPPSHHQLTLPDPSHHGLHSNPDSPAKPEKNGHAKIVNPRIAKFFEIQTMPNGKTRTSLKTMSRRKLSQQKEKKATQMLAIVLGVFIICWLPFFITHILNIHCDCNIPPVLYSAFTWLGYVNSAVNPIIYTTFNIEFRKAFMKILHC

Molecular target: D(2) dopamine receptor (Rattus norvegicus, UniProt P61169)
Test: Inhibition of binding of [3H]spiroperidol to Dopamine receptor D2 in rat striatal membranes
Format: cell membranes, Membrane

CN1CCc2cccc3c2[C@H]1Cc1ccc(O)c(O)c1-3 [APOMORPHINE] was tested, and the IC50 was 220 nM.
